Target: T1, procaspase-9 (Homo sapiens, UniProt P55211)
T1 construct: using neutrophil cytosol containing all the apoptosome components, i.e., procaspase-9; endogenous in cells; host or cells: neutrophil cytosol (primary neutrophils)
T1 sequence (P55211 1-416): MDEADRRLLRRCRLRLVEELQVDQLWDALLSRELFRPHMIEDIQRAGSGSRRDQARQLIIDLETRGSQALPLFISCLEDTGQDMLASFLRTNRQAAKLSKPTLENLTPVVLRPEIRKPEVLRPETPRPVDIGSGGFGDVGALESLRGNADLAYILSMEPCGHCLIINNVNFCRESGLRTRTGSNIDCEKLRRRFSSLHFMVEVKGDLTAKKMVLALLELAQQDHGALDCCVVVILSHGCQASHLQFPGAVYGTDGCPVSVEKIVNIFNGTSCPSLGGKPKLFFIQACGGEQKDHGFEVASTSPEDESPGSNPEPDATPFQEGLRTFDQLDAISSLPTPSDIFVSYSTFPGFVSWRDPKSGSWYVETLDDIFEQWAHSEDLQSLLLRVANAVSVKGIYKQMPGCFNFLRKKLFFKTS
Test: In vitro procaspase-9 activation assay using neutrophil cytosol, cytochrome c and dATP
Format: biochemical
Set-up: dose or concentration left out as unconfirmed
Method: That hypothesis was tested by evaluating procaspase-9 cleavage in an in vitro assay, using neutrophil cytosol containing all the apoptosome components, i.e., procaspase-9 and apoptotic protease-activating factor-1 (Apaf-1) as previously described (McStay et al. 2008; Cell Death Differ. 15:322-331). Addition of exogenous purified cytochrome c and dATP triggered procaspase-9 cleavage (37 kDa) in a time-dependent manner, as evidenced by western blot analysis of caspase-9 (FIG. 7E). […] Caspase-9 activation was next investigated in PL985 cells overexpressing PCNA or the interdomain connecting loop mutant. After 6 days of DMF exposure, caspase-9 activity was elevated unlike undifferentiated cells. This caspase-9 activity might correspond to physiological apoptosis of aged neutrophils.

Procaspase-9 cleavage / activation: procaspase-9 cleavage was delayed
Substance: purified PCNA: recombinant human PCNA produced in E. coli and purified
